The text below walks through data of patent publication US6310072A (priority 1995, dated 2001).

Protein sequences, listed by entry. Tags and fused reporters are not part of them. Lines headed by an entry give the natural chain unless they say otherwise; changes in a name come on top.
UniProt P33533: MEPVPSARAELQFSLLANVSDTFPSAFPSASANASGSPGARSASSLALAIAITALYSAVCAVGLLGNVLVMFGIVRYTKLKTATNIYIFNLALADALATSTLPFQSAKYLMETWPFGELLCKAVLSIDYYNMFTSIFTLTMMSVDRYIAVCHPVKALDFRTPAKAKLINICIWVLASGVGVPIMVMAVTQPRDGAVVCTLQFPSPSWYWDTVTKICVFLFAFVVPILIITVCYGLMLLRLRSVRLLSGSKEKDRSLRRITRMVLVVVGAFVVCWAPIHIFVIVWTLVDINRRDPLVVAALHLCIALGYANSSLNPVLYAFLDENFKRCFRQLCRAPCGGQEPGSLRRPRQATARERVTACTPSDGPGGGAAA

One test has as its target δ-opioid receptor (Rattus norvegicus, UniProt P33533). The test can be described thus: Radioligand binding assay, displacement of [3H]DPDPE-Cl in rat brain membranes. As to conditions: against [3H]DPDPE. A general note: Loss of bound radioactivity is the signal in a displacement assay; it reports binding, not function.
Test [1] relates to fetal dorsal root ganglion sensory neurones. As to conditions: fM-pM antagonist with μM bimodally-acting opioid agonist such as morphine; cited from earlier work.
A further test concerns κ-opioid receptors. The conditions noted are these: i.c.v.; cited from earlier work.

pKd: −log10 of the molar value.

In general, pKd refers to the negative decadic logarithm of the Kd, by convention in mol/L. A high value points to a low Kd. At δ-opioid receptor, enkephalin-[D-Pen^2,5 ] had a pKd of 8.85.

For the compound `CO[C@]12CC[C@@]3(C[C@@H]1C(C)(C)O)[C@H]1Cc4ccc(O)c5c4[C@@]3(CCN1CC1CC1)[C@H]2O5`, the “Action potential duration (APD)” value in test [1] is given as “marked shortening of the action potential duration (APD)”.

Turning to `CN(C(=O)Cc1ccc(Cl)c(Cl)c1)[C@@H]1CCCC[C@H]1N1CCCC1` (relative stereo), the Antinociception profile result in the test on κ-opioid receptors was “antinociception characterised by a rapid onset of action and a single antinociceptive phase”.

As to `CN(C(=O)Cc1ccccc1)[C@H]1CC[C@@]2(CCCO2)C[C@@H]1N1CCCC1`, the Antinociception profile result with κ-opioid receptors is “antinociception characterised by a rapid onset of action and a single antinociceptive phase”.
